B2AR arrestin – agonists driving beta-arrestin recruitment to human beta2-adrenergic receptor; beta-arrestin recruitment to beta2AR, cell-based reporter; P07550; Potency, µM (titrated, usually from 46.1 µM), most hits filed as activators; actives 0.02% (n = 330,000); note: nearly all actives have a fitted effect of over 65% in size
miR-21 FLuc – miR-21 reporter, rising signal; HeLa miR-21 FLuc reporter, luciferase, 48 h; Potency, µM (titrated, usually from 38.3 µM); AID 2288; 340,000 tested, under 10 active; active = well fitted rising curve with a large enough effect; inconclusive = small, poorly fitted or top-dose-only effect; inactive = no such curve, though single readings can be large or run the other way;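 further: miR-21 action dims this reporter so a rising signal means less miR-21 action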
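Compounds were titrated across several concentrations (up to approximately 40 uM) and incubated 48 hours with HeLa miR-21-FLuc reporter cells (miR-21 target sequence downstream of FLuc, endogenous miR-21). Readout was firefly luciferase luminescence after lytic detection reagent.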
Nrf2 activator – Nrf2 pathway activation; Potency, µM (top dose mostly 46.1 µM), actives largely listed as activators; actives 0.31% (n = 410,000); AREc32 ARE-luciferase reporter (MCF7-derived line), luminescence, 24 h; AID 624171; note: nearly all actives have a fitted effect of over 65% in size
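Reporter line AREc32 (ARE-Fluc), seeded overnight in OPTI-MEM with 5% FBS; compound pin-transferred, 24 hr at 37 deg C, 5% CO2; luminescent read-out.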
A549 tox – kills or reduces viability of A549 cells in Nrf2 counter-screen; actives 0.16% (n = 390,000); AID 504648; A549 ARE-Fluc cells, CellTiter-Fluor viability, 18-24 h; Potency, µM (titrated, usually from 46 µM), most hits filed as inhibitors
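Cytotoxicity counterscreen: CellTiter-Fluor fluorescence was measured in A549 ARE_Fluc cells after 18-24 h of compound exposure in a concentration series. The subsequent BugLite luminescent read reports ARE-luciferase activity.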
Nrf2 block – Nrf2 pathway inhibition; A549 ARE-Fluc reporter, luciferase luminescence, 18-24 h; Potency, µM (highest dose often 46 µM), actives largely listed as inhibitors; actives 2.1% (n = 360,000); note: nearly all actives have a fitted effect of over 60% in size
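Quantitative HTS in A549 cells stably bearing an antioxidant response element-firefly luciferase construct. Inhibition of Nrf2-driven transcription was scored by luminescence after 18-24 h of compound exposure at 37 °C.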
Of the large screens only hits and unclear results are named; the others gave an inactive call; ! = not active in a repeat. Most compounds without a hit are left out; they make up all but 2.2% or so of the library. Unless noted, calls come from the whole dose curve; as a rule, active = well fitted curve in the direction sought with a large enough effect; inconclusive = small, poorly fitted or top-dose-only effect, or another doubt; inactive = no such curve, though single readings can be large; an effect the other way counts as inactive or inconclusive.

N#CNC(=Nc1cccc(F)c1)SCc1cccc(F)c1	Nrf2 block 23.1µM
O=C(Nc1nnc(-c2ccccc2F)s1)C1CCCO1 (centres undefined)	Nrf2 activator 3.16µM, Nrf2 block inconclusive
O=C(Nc1nnc(-c2ccccc2F)s1)Nc1ccccc1F	Nrf2 activator 8.91µM
O=C(Nc1nnc(-c2ccccc2SCc2ccccc2)s1)Nc1ccccc1F	none
COC(=O)c1ccc(CN(Cc2ccc(OC)c(OC)c2)S(=O)(=O)c2ccc(F)c(C(=O)Nc3cc(C)ccc3C)c2)cc1	none (no result: B2AR arrestin, Nrf2 block)
c1coc(-c2nc3cc4ccccc4cc3nc2-c2ccco2)c1	Nrf2 block inconclusive (no result: B2AR arrestin, miR-21 FLuc, Nrf2 activator)
CCOc1ccc(C2=C(C(=O)CC)Sc3nncn3N2C(=O)CC)cc1	A549 tox inconclusive (no result: B2AR arrestin, Nrf2 block)
CSCC[C@H](NC(=O)OC(C)(C)C)c1nnc(SCc2ccc(F)cc2)o1	Nrf2 block 25.9µM
CC(C)Cc1nc(N2CCN(C(=O)c3ccccc3)CC2)c(C#N)c2c1CCC2	Nrf2 block 23.1µM (no result: A549 tox)
N#Cc1c(N2CCN(C(=O)c3ccccc3)CC2)nc(-c2ccccc2)c2c1CCCC2	A549 tox inconclusive
N#Cc1c(N2CCN(C(=O)c3ccco3)CC2)nc(-c2ccccc2)c2c1CCCC2	A549 tox inconclusive, Nrf2 block 18.4µM
CCc1nc(N2CCN(C(=O)c3ccco3)CC2)c(C#N)c2c1COC(C)(C)C2	Nrf2 block 14.6µM
CC1(C)Cc2c(C#N)c(N3CCN(C(=O)c4ccco4)CC3)nc(Cc3ccccc3)c2CO1	Nrf2 block inconclusive
CC(=O)Nc1ccc(NC(=O)CSc2ccc(-c3cccnc3)nn2)cc1	none
Cc1ccc(NC(=O)CSc2ccc(-c3ccccn3)nn2)cc1	Nrf2 block inconclusive
CCOc1ccc(NC(=O)CSc2ccc(-c3ccccn3)nn2)cc1	none
O=C(CSc1ccc(-c2cccnc2)nn1)Nc1ccc(Br)cc1	Nrf2 block 7.31µM
O=C(CSc1ccc(-c2ccccn2)nn1)Nc1ccc(F)c(F)c1	Nrf2 block 3.26µM
CCOC(=O)c1ccc(NC(=O)CSc2ccc(-c3ccccn3)nn2)cc1	Nrf2 block 20.6µM
O=C(CSc1ccc(-c2cccs2)nn1)Nc1cccc(F)c1	Nrf2 block 20.6µM (no result: B2AR arrestin)
CCn1cc(S(=O)(=O)N2CCN(c3ccc(Cl)cc3)CC2)cn1	Nrf2 block 11.6µM
Cc1cc(C)cc(N(C(=O)c2cc3ccccc3oc2=O)C2C=CS(=O)(=O)C2)c1 (centres undefined)	Nrf2 activator 14.1µM
CCc1ccccc1NC(=O)Cn1nc(C)c2nn(-c3ccc(Cl)cc3)c(C)c2c1=O	none (no result: B2AR arrestin, Nrf2 block)
CCCCCn1c(-c2ccc(OC)c(OC)c2)nc2ccccc21	miR-21 FLuc inconclusive (no result: B2AR arrestin)
Cc1sc(NC(=O)c2cccs2)c(C(N)=O)c1C	Nrf2 activator 10µM, Nrf2 block inconclusive
NC(=O)c1ccsc1NC(=O)c1cccs1	Nrf2 activator inconclusive (no result: B2AR arrestin, miR-21 FLuc)
Cc1nc2ccccn2c1-c1csc(NCc2ccco2)n1	Nrf2 block inconclusive
Cc1ccn2c(-c3csc(NCc4ccccc4)n3)c(C)nc2c1	miR-21 FLuc inconclusive, A549 tox inconclusive, Nrf2 block 25.9µM
Cn1nc(CC(=O)NC2CCCCCC2)c2ccccc2c1=O	Nrf2 block 18.4µM
CCn1c(=NC(=O)CS(=O)(=O)c2ccc(C)cc2)sc2cccc(OC)c21	Nrf2 block 23.1µM (no result: miR-21 FLuc)
Cc1ccc(OCC(=O)c2cc(C)n(CC(F)(F)F)c2C)c([N+](=O)[O-])n1	Nrf2 block inconclusive
Cc1ccc(OCC(=O)c2cc(C)n(Cc3cccs3)c2C)c([N+](=O)[O-])n1	Nrf2 block 11.6µM
COc1cccc2c1OC[C@@H](CO)[C@H]2N(C)C(=O)Nc1ccc(Cl)cc1Cl	Nrf2 block 18.4µM
COc1cc2c(cc1OC)/C(=C/C(=O)c1cccc([N+](=O)[O-])c1)NCC2	A549 tox inconclusive, Nrf2 block 13µM
CCOC(=O)c1ccc(NC(=O)c2c(NCc3sccc3C)sc3c2CCCCC3)cc1	none (no result: B2AR arrestin, Nrf2 block)
COc1ccc(NC(=O)C(C)Sc2cc(-c3ccccc3)nc(C)n2)cc1Cl (centres undefined)	A549 tox inconclusive, Nrf2 block 20.6µM (no result: B2AR arrestin)
CCc1ccc(OC)c(S(=O)(=O)Nc2ccc(Cc3ccncc3)cc2)c1	Nrf2 block 18.4µM
CCc1ccc(NS(=O)(=O)c2ccc(OC)c3ncccc23)cc1	none
O=C(CSc1nnc(-c2c[nH]c3ccccc23)o1)N(Cc1ccccc1)c1ccc(F)cc1	A549 tox inconclusive, Nrf2 block 18.4µM
CC(=O)Oc1c(Cl)c(N2CCOCC2)c(OC(C)=O)c2ccccc12	Nrf2 activator 15.8µM, Nrf2 block inconclusive
Cc1cc(OC(=O)N2CCOCC2)cc(C)c1Cl	none (no result: B2AR arrestin)
COc1ccc(OC)c(NC(=O)Cn2cc(C(=O)c3ccco3)c3ccccc32)c1	Nrf2 block 14.6µM
O=C1CN(c2nc(-c3cccnc3)nc3sc4c(c23)CCCC4)CCN1	Nrf2 block 11.6µM
Cc1cc(C)cc(-n2ccnc2SCC(=O)Nc2ccc(C)cc2C)c1	miR-21 FLuc inconclusive (no result: B2AR arrestin, Nrf2 block)
Oc1ccc(C=NNc2ccccn2)c(O)c1	Nrf2 block inconclusive (no result: B2AR arrestin, miR-21 FLuc)
Brc1ccc(/C=N/Nc2ccccn2)cc1	Nrf2 activator 12.6µM, Nrf2 block inconclusive
O=[N+]([O-])c1ccc(O)c(/C=N/Nc2ccccn2)c1	A549 tox 14.6µM, Nrf2 block inconclusive
Clc1ccc(/C=N/Nc2ccccn2)cc1	Nrf2 activator inconclusive, Nrf2 block inconclusive
Oc1cccc(C=NNc2ccccn2)c1	Nrf2 activator 12.6µM (no result: B2AR arrestin, miR-21 FLuc)
O=C(NC1CC1)c1ccc2nc(-c3ccco3)c(-c3ccco3)nc2c1	none (no result: B2AR arrestin, miR-21 FLuc, Nrf2 activator)
CCOC(=O)N1CCC(NC(=O)c2cnn(-c3ccc(F)cc3)c2-n2cccc2)CC1	none (no result: B2AR arrestin)
COc1ccc(N(Cc2cccs2)C(=O)c2ccc(Br)o2)cc1	none (no result: B2AR arrestin)
CCC(CC)C(=O)Nc1nnc(S(=O)(=O)N(C)c2cc(C)cc(C)c2)s1	Nrf2 block 20.6µM (no result: B2AR arrestin)
CN(c1ccccc1)S(=O)(=O)c1nnc(NC(=O)c2ccco2)s1	Nrf2 block 7.31µM!
CC(C)NC(=O)C1CCN(C(=O)c2cc3sccc3n2Cc2ccc(F)cc2)CC1	A549 tox inconclusive, Nrf2 block 14.6µM
CC1CCN(C(=O)C2CCN(C(=O)c3cc4sccc4n3Cc3ccc(F)cc3)CC2)CC1	none
COc1ccc(-c2ccc(CCC(=O)O)n2CC(=O)Nc2cccc(Cl)c2C)cc1	none (no result: B2AR arrestin)
CCOC(=O)c1cnc2ccc(OC)cc2c1Nc1ccc(OCc2ccccc2Cl)cc1	miR-21 FLuc inconclusive, Nrf2 block inconclusive (no result: B2AR arrestin)
CCOC(=O)c1cnc2ccc(OCC)cc2c1Nc1ccc(OCc2ccccc2Cl)cc1	Nrf2 block 20.6µM (no result: B2AR arrestin)
COc1cccc(CN(C)C(=O)c2cc(S(=O)(=O)N3CCN(c4ccccc4)CC3)ccc2Cl)c1	Nrf2 block 20.6µM
COc1cccc(NC(=O)CN(C)C(=O)c2cccc(S(=O)(=O)N3CCN(c4ccccc4)CC3)c2)c1	Nrf2 block inconclusive
